In PubChem BioAssay AID526 (National Center for Advancing Translational Sciences (NCATS), 2006):
The other results are listed elsewhere or left out. Some results for these compounds are left out of this collection, so the calls shown say nothing about other tests. Active and inactive are the calls of the source. Calls follow the shape of the dose curve; as a rule, active = well fitted activation curve with a large enough effect (not every such curve was filed as active); inconclusive = small, poorly fitted or top-dose-only effect, or another doubt; inactive = no such curve, though single readings can be large or run the other way.

Experiment: Ubiquitin-GFP Assay
Settings: Ubiquitin-GFP reporter cells, proteasome inhibition, GFP fluorescence, untreated = 0%, 10 µM MG-132 = 100%; at 9.17 µM unless noted
Description: NIH Chemical Genomics Center [NCGC]
NIH Molecular Libraries Screening Centers Network [MLSCN]
The ubiquitin-proteasome pathway is present within all eukaryotic cells and plays roles in normal cellular functions and disease-related dysfunction. Proteins are tagged with a poly-ubiquitin chain that targets them for the proteasome, a multimeric protease, that degrades the protein into peptides and free ubiquitin. The proteasome has a key role in regulating cell cycle and growth and is known to control the levels of cyclins and CDK inhibitors as well as tumor suppressor proteins. Additionally, the activation of NF- B is controlled by ubiquitin-labeling and degradation of the inhibitory protein I B . […] With this in mind, proteasome inhibitors such as MG-132 and PS-341 have been used to inhibit tumor cell growth.
A cellular assay for ubiquitin-proteasome function was used to find chemical probes of this pathway. The assay used an ubiquitin-GFP construct expressed in U2OS cells (BioImage). Under basal conditions little GFP can be detected as it is degraded by the proteasome. However, treatment of the cells with a proteasome inhibitor such as MG-132 results in a rise in GFP levels that can be detected in as little as four hours. We used the Acumen-Explorer laser plate cytometer having a 488 nm laser as an excitation light source to detect the GFP. Compounds were screened in 1536-well plates using qHTS with a concentration-titration series range that varied from 46 uM to 2.9 nM.
NCGC Assay Protocol Summary:
Cells (U20S ps 2042) expressing ubiquitin (G76V-GFP) were maintained in DMEM with Glutamax-1 and high glucose, 10% FBS, 1% (v/v) penicillin-streptomycin, 0.5 mg/mL Geneticin (G418). The cells were seeded in 1536-well plates using a solenoid-based dispenser at 700 cells/5ul in DMEM medium with Glutamax-1 and high glucose containing 0.5% FBS, w/o phenol red, 25 mM HEPES. The plates were incubated at 37 °C/5% CO2 overnight. Then 23 nl of MG-132 in DMSO was added to the control wells at a final concentration of 10 uM. Next, 23 nL of library compounds in DMSO were added to the sample wells. The plates were incubated for 4 hrs at 37 °C/5% CO2. Following this incubation the plates were read on the Acumen using a cell object definition of 15 to 100 um in width and depth and a window of Total Intensity of between 77,200 and 2,720,000 FLU to enumerate GFP-expressing cells.
The %Activity was determined from the basal and MG-132 treated control wells. %Activity was determined by normalizing to the difference in signal between basal cells (0% Activity) and cells incubated with 10 uM of the proteasome inhibitor MG-132 (100% Activity). Concentration-response curves were fitted to the signals arising from the GFP fluorescence.
Assay Protocol Summary Table
Sequence Parameter Value Description
2. Time O/N 37C incubation
4. Compound 23 nL Libraries (46 uM to 2.9 nM)
5. Time 4 hr 37C incubation
6. Detector Acumen Total Intensity, GFP fluorescence (488 ex/515 em)
Keywords: NIH Roadmap, MLSCN, MLI, MLSMR, BioImage, proteasome, ubiquitin-GFP, qHTS, NCGC

Compound	activation (GFP accumulation)
CN(C)c1cccc(C(=O)NCC2(N(C)C)CCCCC2)c1	inactive: 1.92% [at 45.9 µM]
CN1CCC[C@H](OC(=O)[C@](O)(c2ccccc2)C2CCCC2)C1	inactive: 8.72%
CN1CC[C@H](OC(=O)[C@](O)(c2ccccc2)C2CCCC2)C1	inactive: -2.2%
O=C(OC1CN2CCC1CC2)C(CO)(c1ccccc1)c1ccccc1 (stereo not given)	inactive: -3.09% [at 45.9 µM]
C=C(C)C#C[C@@](O)(C(=O)OC1CCN(C)CC1)c1ccccc1	inactive: 7.03%
